According to article PMC2840614 (Bioorganic & medicinal chemistry letters, 2010):
Like-named read-outs stand apart in the source and are kept apart here.

Sequences of proteins named here, by UniProt entry; tags and fusion partners are left off. A change or cut given only in a name is not applied to a line headed by its entry.
UniProt P32300, whole entry: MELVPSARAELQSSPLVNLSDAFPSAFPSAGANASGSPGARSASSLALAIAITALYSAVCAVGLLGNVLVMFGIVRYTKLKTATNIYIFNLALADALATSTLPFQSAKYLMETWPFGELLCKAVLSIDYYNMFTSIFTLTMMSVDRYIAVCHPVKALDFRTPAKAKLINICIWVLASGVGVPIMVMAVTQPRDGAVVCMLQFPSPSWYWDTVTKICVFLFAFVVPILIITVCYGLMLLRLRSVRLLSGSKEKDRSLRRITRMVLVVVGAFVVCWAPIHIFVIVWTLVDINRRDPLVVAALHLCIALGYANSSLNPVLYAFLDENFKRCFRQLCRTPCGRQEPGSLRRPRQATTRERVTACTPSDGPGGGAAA

What was measured:
δ-opioid receptor [1] = target: T1, δ-opioid receptor (Mus musculus, UniProt P32300); settings: cited from earlier work
δ-opioid receptor [2] = target: T1, δ-opioid receptor; assay: Effect on deltorphin C stimulated GTPγS binding in NG108-15 cell membranes; assay type: biochemical

## Cc1cc(O)cc(C)c1C[C@H](N)C(=O)N1Cc2ccccc2C[C@H]1C(=O)O [compound 5, H-Dmt-Tic-OH]
δ-opioid receptor [1]; antagonism of Deltorphin C in vitro
  pA2 δ: 8.48
δ-opioid receptor [1]; δ-antagonism in vitro
  pA2 δ: 8.48

## Cc1cc(O)cc(C)c1C[C@H](N)C(=O)N[C@H]1Cc2ccccc2CN(CC(=O)NCCNC(=O)CN2Cc3ccccc3C[C@H](NC(=O)[C@@H](N)Cc3c(C)cc(O)cc3C)C2=O)C1=O [compound 10, ethylene-bis(H-Dmt-Aba-Gly-NH)]
δ-opioid receptor [2]
  Kb: 18.2 nM
δ-opioid receptor [2]; antagonism of deltorphin C stimulated GTPγS binding, NG108-15 cell membranes, NA: not active (>20.000nM)
  GTPγS (pA2)δ: 7.74

## Cc1cc(O)cc(C)c1C[C@H](N)C(=O)N1Cc2ccccc2C[C@H]1C(=O)NCC/C=C/CCNC(=O)[C@@H]1Cc2ccccc2CN1C(=O)[C@@H](N)Cc1c(C)cc(O)cc1C [compound 14, 1,6-(hex-3-ene)bis(H-Dmt-Tic-NH)]
δ-opioid receptor [2]
  Kb: 1.15 nM
